The entries are a selection whose mix differs from that of the whole data set.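 Results are percent growth after 48 hours of single-concentration exposure. 100 means growth as in untreated cells, lower positive values show inhibition; negative values down to -100 show cell death.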 Active and inactive are the calls of the source. The calls were made as follows: active = growth percent below 10; inactive = the rest.
What was measured:
Assay in all cases: NCI-60 one-dose screen, 48 h (100 = growth as untreated, 0 = no growth, -100 = all killed)
[1] = system: HCT-15 colon; conditions: 10 µM unless noted
[2] = system: HT29 colon; conditions: 10 µM unless noted
[3] = system: SNB-75 CNS; conditions: 10 µM unless noted
[4] = system: SNB-19 CNS; conditions: 10 µM unless noted
[5] = system: U251 CNS; conditions: 10 µM unless noted
[6] = system: PC-3 prostate; conditions: 10 µM unless noted
[7] = system: SK-MEL-5 melanoma; conditions: 10 µM unless noted
[8] = system: UACC-62 melanoma; conditions: 10 µM unless noted
[9] = system: LOX IMVI melanoma; conditions: 10 µM
[10] = system: SK-MEL-28 melanoma; conditions: 10 µM unless noted

Measured: growth

CC(/C=N/N=C(\N)N[N+](=O)[O-])=N\N=C(/N)N[N+](=O)[O-]
inactive: [1] 94.7% | [2] 116% | [3] 85.7% | [4] 97.9% | [5] 99.4% | [6] 101% | [7] 103% | [8] 102% | [9] 110% | [10] 105%

COC(=O)C(=[N+]=[N-])C(=O)c1cc([N+](=O)[O-])cc([N+](=O)[O-])c1
inactive: [1] 102% | [2] 131% | [3] 105% | [4] 109% | [5] 107% | [6] 99% | [7] 108% | [8] 111% | [9] 119% | [10] 113%

Cc1cc([N+](=O)[O-])cc([N+](=O)[O-])c1O
inactive: [1] 103% | [2] 108% | [3] 104% | [4] 102% | [5] 96.7% | [6] 101% | [7] 101% | [8] 96.3% | [9] 97.4% | [10] 107%

Cc1ccc(SP(=O)(CCl)N(CCCl)CCCl)cc1 (stereo not given)
inactive: [1] 95% | [2] 88.1% | [3] 80.8% | [4] 97.9% | [5] 94.4% | [6] 85% | [7] 98.6% | [8] 97.5% | [9] 102% | [10] 104%

CCCCOP(N)(=O)OCCCC
inactive: [1] 101% | [2] 115% | [3] 92.4% | [4] 96.2% | [5] 99.2% | [6] 94.3% | [7] 94% | [8] 101% | [9] 102% | [10] 103%

O=P(Nc1ncccn1)(N1CC1)N1CC1
inactive: [1] 106% | [2] 106% | [3] 100% | [4] 100% | [5] 98.2% | [6] 85.1% | [7] 96.2% | [8] 101% | [9] 94.7% | [10] 102%

CCOC(=O)N1CCN(CCCl)CC1
inactive: [1] 96.1% | [2] 102% | [3] 82.4% | [4] 123% | [5] 103% | [6] 99% | [7] 99.4% | [8] 107% | [9] 105% | [10] 104%

COC(=O)C1(C)COP(=O)(N2CCCC2)OC1 (stereo not given)
inactive: [1] 104% | [2] 98.7% | [3] 90.4% | [4] 106% | [5] 105% | [6] 95.9% | [7] 107% | [8] 105% | [9] 97.8% | [10] 106%

Nc1ccc([As](=O)(O)c2ccc(N)cc2)cc1
inactive: [1] 107% | [2] 99.5% | [3] 89.2% | [4] 91.6% | [5] 83.9% | [6] 86% | [7] 105% | [8] 96.6% | [9] 84.4% | [10] 111%

O=C(C(=O)c1ccc([N+](=O)[O-])cc1[N+](=O)[O-])c1ccc([N+](=O)[O-])cc1[N+](=O)[O-]
inactive: [1] 98.2% | [2] 111% | [3] 88.8% | [4] 101% | [5] 94.5% | [6] 90.1% | [7] 89.4% | [8] 99.9% | [9] 81.7% | [10] 113%

COC(=O)N(C)[N+](=O)[O-]
inactive: [1] 93.5% | [2] 104% | [3] 81.5% | [4] 97.5% | [5] 95.4% | [6] 99.6% | [7] 110% | [8] 100% | [9] 108% | [10] 109%

[N-]=[N+]=NS(=O)(=O)c1ccc([N+](=O)[O-])cc1
inactive: [1] 117% | [2] 107% | [3] 98.4% | [4] 110% | [5] 103% | [6] 93.6% | [7] 101% | [8] 101% | [9] 96.7% | [10] 106%

COc1ccc(C(=O)N(CCCl)CCCl)cc1OC
inactive: [1] 96.6% | [2] 91.5% | [3] 91% | [4] 109% | [5] 106% | [6] 102% | [7] 107% | [8] 108% | [9] 101% | [10] 114%

O=[N+]([O-])c1cc2cn[nH]c2cc1[N+](=O)[O-]
inactive: [1] 117% | [2] 106% | [3] 91.4% | [4] 102% | [5] 92.6% | [6] 83.5% | [7] 99.1% | [8] 90.8% | [9] 101% | [10] 113%

CCCC1OP(=O)(Nc2ccccc2)OCC1CC (stereo not given)
inactive: [1] 103% | [2] 106% | [3] 86.9% | [4] 103% | [5] 99.2% | [6] 93.6% | [7] 108% | [8] 97.4% | [9] 101% | [10] 113%

CCN(CCCl)C1c2ccccc2-c2ccccc21
inactive: [1] 102% | [2] 92.3% | [3] 92% | [4] 94.4% | [5] 97.6% | [6] 89.5% | [7] 94% | [8] 92.5% | [9] 93.6% | [10] 104%

ClCCN(CCc1ccccc1)Cc1ccccc1
inactive: [1] 100% | [2] 93.8% | [3] 102% | [4] 107% | [5] 91.8% | [6] 92.6% | [7] 99% | [8] 99.5% | [9] 95.1% | [10] 109%

O=C(O)/C=C\c1cccc(N(CCCl)CCCl)c1
inactive: [1] 104% | [2] 106% | [3] 93.5% | [4] 98% | [5] 95.8% | [6] 87.5% | [7] 104% | [8] 91.5% | [9] 105% | [10] 113%

Cc1c([N+](=O)[O-])cc(C(=O)c2cc([N+](=O)[O-])cc([N+](=O)[O-])c2)cc1[N+](=O)[O-]
inactive: [1] 101% | [2] 108% | [3] 94.9% | [4] 107% | [5] 94.8% | [6] 80.5% | [7] 61.1% | [8] 92% | [9] 91.4% | [10] 107%

Cc1ccc(S(=O)(=O)n2cc(C3(O)CC(CC#N)OC3=O)c3cc(Br)ccc32)cc1 (stereo not given)
inactive: [1] 98.3% | [2] 115% | [3] 94.7% | [4] 90.8% | [5] 109% | [6] 90.6% | [7] 98.2% | [8] 102% | [9] 93% | [10] 114%

CC(=O)Nc1ccc([As](=O)(O)O)c(O)c1
inactive: [1] 110% | [2] 104% | [3] 95% | [4] 94.1% | [5] 111% | [6] 105% | [7] 102% | [8] 98.9% | [9] 98.6% | [10] 106%

Nc1nnc(N)nn1
inactive: [1] 103% | [2] 103% | [3] 102% | [4] 113% | [5] 101% | [6] 99.7% | [7] 107% | [8] 107% | [9] 92.1% | [10] 115%

ClCCN1CCn2cnc3ncnc-3c21
inactive: [1] 103% | [2] 92% | [3] 89% | [4] 107% | [5] 115% | [6] 97.8% | [7] 99.5% | [8] 99.9% | [9] 107% | [10] 112%

C[As](=O)(O)c1cccc(C(=O)O)c1
inactive: [1] 103% | [2] 102% | [3] 92% | [4] 98.7% | [5] 102% | [6] 92% | [7] 108% | [8] 101% | [9] 95.3% | [10] 128%

ClCCNCC1COc2ccccc2O1 (stereo not given)
inactive: [1] 105% | [2] 95.8% | [3] 97.7% | [4] 104% | [5] 94% | [6] 98.1% | [7] 99.4% | [8] 97.6% | [9] 96.7% | [10] 112%

NC(=S)N/N=C/c1ccc(N(CCF)CCCl)cc1
inactive: [1] 95.5% | [2] 89.3% | [3] 70.1% | [4] 102% | [5] 88.4% | [6] 75.2% | [7] 97.2% | [8] 93.8% | [9] 97.3% | [10] 98.5%

S=P(Cl)(N1CCCCCC1)N1CC1 (stereo not given)
inactive: [1] 103% | [2] 102% | [3] 87% | [4] 100% | [5] 101% | [6] 94.4% | [7] 99.5% | [8] 85.4% | [9] 100% | [10] 106%

O=[N+]([O-])c1cc(Oc2ccc([N+](=O)[O-])cc2C(F)(F)F)cc([N+](=O)[O-])c1
inactive: [1] 91.9% | [2] 103% | [3] 91.7% | [4] 94.6% | [5] 98.5% | [6] 90.1% | [7] 83.1% | [8] 85.2% | [9] 88% | [10] 115%

ClC(Cl)(Cl)C1SCCS1
inactive: [1] 101% | [2] 93.8% | [3] 106% | [4] 99.2% | [5] 92.2% | [6] 108% | [7] 115% | [8] 102% | [9] 92.3% | [10] 112%
